Measurements as given in PubChem BioAssay AID602281 (The Scripps Research Institute Molecular Screening Center, 2012).
The entries are a selection whose mix differs from that of the whole data set. Some salts or complexes appear as unconnected parts, following the source record. Activity calls are given as the source filed them.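 The calls were made as follows: active = inhibition above the mean inhibition across every tested compound plus 3 SD (cut at about 22% in these data); inactive = the rest.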

The chains behind the UniProt entries cited, without tags or fusion partners.
UniProt Q00G26, whole entry, looked up: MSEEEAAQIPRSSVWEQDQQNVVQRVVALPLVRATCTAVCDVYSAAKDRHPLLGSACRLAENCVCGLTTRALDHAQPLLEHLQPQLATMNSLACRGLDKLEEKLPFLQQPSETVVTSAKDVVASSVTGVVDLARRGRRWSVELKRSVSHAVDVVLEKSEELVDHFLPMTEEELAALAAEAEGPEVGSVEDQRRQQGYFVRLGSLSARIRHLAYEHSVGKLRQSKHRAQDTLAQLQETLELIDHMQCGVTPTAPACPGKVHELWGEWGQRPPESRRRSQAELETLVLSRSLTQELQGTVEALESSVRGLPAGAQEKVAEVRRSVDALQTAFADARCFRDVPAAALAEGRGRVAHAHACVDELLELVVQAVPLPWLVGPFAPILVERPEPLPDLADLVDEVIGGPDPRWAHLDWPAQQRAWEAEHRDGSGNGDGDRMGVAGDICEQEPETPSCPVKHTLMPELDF
UniProt Q8WTS1, whole entry, looked up: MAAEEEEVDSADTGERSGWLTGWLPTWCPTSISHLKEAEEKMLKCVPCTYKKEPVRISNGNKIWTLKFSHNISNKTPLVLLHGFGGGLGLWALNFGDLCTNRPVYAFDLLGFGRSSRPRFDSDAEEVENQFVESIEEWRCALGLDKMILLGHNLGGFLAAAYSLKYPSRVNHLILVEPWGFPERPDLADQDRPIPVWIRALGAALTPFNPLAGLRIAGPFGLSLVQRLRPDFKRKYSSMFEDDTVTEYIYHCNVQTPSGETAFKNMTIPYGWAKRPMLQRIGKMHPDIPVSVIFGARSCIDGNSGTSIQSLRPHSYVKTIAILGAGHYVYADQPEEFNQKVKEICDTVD

What follows are molecules tested against Perilipin-5 (Homo sapiens) + 1-acylglycerol-3-phosphate O-acyltransferase ABHD5 (Homo sapiens) (UniProt Q00G26+Q8WTS1) (assay: ABHD5-PLIN5 interaction inhibitors, primary screen, cell lysate, split luciferase complementation, luminescence (AID 602281;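 also: 0% = DMSO only wells and the 100% control is not disclosed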)). Conditions: Split G. princeps luciferase complementation, 4 h, at 4 µM, hits give high values.
`Cc1c([N+](=O)[O-])cc([N+](=O)[O-])c(Br)c1[N+](=O)[O-]` was tested, and the inhibition was inactive: -6.58%. For `CCN(CC)CCCOC(=O)C(O)(c1ccccc1)C1CCCCC1` (stereo not given), the inhibition was inactive: 0.63%. `CCOC(=O)c1ccc(NP(C)(=O)Oc2ccc(F)cc2)cc1` (stereo not given) was tested, and the inhibition was inactive: -1.08%. In the case of `COc1ccc(OP(C)(=O)Nc2ccc(SC(F)(F)F)cc2)cc1` (stereo not given), the inhibition is reported as inactive: -0.25%. `CCN(CC)CCCNc1ccccc1[N+](=O)[O-].O=[N+]([O-])c1cc([N+](=O)[O-])c(O)c([N+](=O)[O-])c1` was tested, and the inhibition was inactive: 9.87%. In the case of `COc1ccc2c(c1O)-c1c(O)c(OC)cc3c1[C@H](C2)[N+](C)(C)CC3.O=[N+]([O-])c1cc([N+](=O)[O-])c([O-])c([N+](=O)[O-])c1[O-]`, the inhibition is reported as inactive: -4.4%. In the case of `O=C(OC1CN2CCC1CC2)c1ccc([N+](=O)[O-])cc1` (stereo not given), the inhibition is reported as inactive: -5.98%. In the case of `O=C(OCCN1CCN(CCOCc2ccccc2)CC1)C(O)(c1ccccc1)c1ccccc1`, the inhibition is reported as inactive: 2.73%. `CP(=O)(Nc1ccccc1F)Oc1ccccc1` (stereo not given) was tested, and the inhibition was inactive: -8.9%. For `CC(C)c1ccc(OP(C)(=O)Nc2ccc(SC(F)(F)F)cc2)cc1` (stereo not given), the inhibition was inactive: -13.3%. In the case of `O=[N+]([O-])c1cc([N+](=O)[O-])c(Nc2ccc(Cl)cc2)c([N+](=O)[O-])c1`, the inhibition is reported as inactive: -11.3%. `Cc1ccccc1NP(C)(=O)Nc1ccccc1C` was tested, and the inhibition was inactive: -0.6%. With `O=[N+]([O-])c1cc([N+](=O)[O-])c(C(F)(F)F)c([N+](=O)[O-])c1O` the inhibition was inactive: 1.8%. With `CP(=O)(Nc1ccc2c(c1)OCCO2)Oc1ccccc1` (stereo not given) the inhibition was inactive: 5.89%. For `CCOP(C)(=S)SCC(=O)NC(C)(CC)C(=O)O` (stereo not given), the inhibition was inactive: 4.26%. `CP(=O)(Nc1ccc(SC(F)(F)F)cc1)Oc1ccc(F)cc1` (stereo not given) was tested, and the inhibition was inactive: 2.74%. In the case of `Cc1c(C(c2ccc3c(c2)OCO3)c2c(C)n(C)n(-c3ccccc3)c2=O)c(=O)n(-c2ccccc2)n1C.O=[N+]([O-])c1cc([N+](=O)[O-])c(O)c([N+](=O)[O-])c1`, the inhibition is reported as inactive: -1.81%. In the case of `O=[N+]([O-])c1ccc(OP2(=O)COCCO2)cc1` (stereo not given), the inhibition is reported as inactive: 10.1%. For `Cc1cc(-c2cccc3ccccc23)c(C)cn1.O=[N+]([O-])c1cc([N+](=O)[O-])c(O)c([N+](=O)[O-])c1`, the inhibition was inactive: 5.19%. With `O=[N+]([O-])c1cc([N+](=O)[O-])c(NCC2CCS(=O)(=O)C2)c([N+](=O)[O-])c1` (stereo not given) the inhibition was inactive: -4.87%. In the case of `CN(C)CCOC(=O)C(O)(c1ccccc1)C1CCCCC1` (stereo not given), the inhibition is reported as inactive: 8.04%. For `COc1ccc(NP(C)(=O)Oc2ccccc2OC)cc1` (stereo not given), the inhibition was inactive: -3.47%. In the case of `COc1ccc(OP(C)(=O)Nc2cccc(Br)c2)cc1` (stereo not given), the inhibition is reported as inactive: 1.02%. For `CCOC(=O)c1ccc(NP(C)(=O)Oc2ccc(Cl)cc2)cc1` (stereo not given), the inhibition was inactive: -2.37%. `CP(=O)(OC12CC3CC(CC(C3)C1)C2)OC12CC3CC(CC(C3)C1)C2` was tested, and the inhibition was inactive: -2.93%. In the case of `CN(C)C(=O)c1c([N+](=O)[O-])cc([N+](=O)[O-])cc1[N+](=O)[O-]`, the inhibition is reported as inactive: 0.37%. In the case of `CC(C)(C)c1ccc(OP(C)(=O)O)cc1`, the inhibition is reported as inactive: 8.48%. In the case of `COc1ccccc1OP(C)(=O)Nc1ccccc1Br` (stereo not given), the inhibition is reported as inactive: 0.51%. With `CP(=O)(Nc1ccc(Cl)cc1)Oc1ccc(F)cc1` (stereo not given) the inhibition was inactive: 0.42%. With `COc1ccccc1OP(C)(=O)Nc1c(C)n(C)n(-c2ccccc2)c1=O` (stereo not given) the inhibition was inactive: -4.78%. With `O=C(OCCCN1CCCC1)C(O)(c1ccccc1)C1CCCCC1` (stereo not given) the inhibition was inactive: -0.96%. In the case of `CP(=O)(Oc1ccccc1)N1CCOC1=O` (stereo not given), the inhibition is reported as inactive: -5.25%. For `CCc1ccc(OP(C)(=O)Nc2cccnc2)cc1` (stereo not given), the inhibition was inactive: -9.9%. `CCN(CC)CC(O)COC(=O)C(O)(c1ccccc1)C1CCCCC1` (stereo not given) was tested, and the inhibition was inactive: -6.3%. In the case of `COc1ccc(OP(C)(=O)Nc2ccc(Br)cc2)cc1` (stereo not given), the inhibition is reported as inactive: -1.91%. In the case of `CP(=O)(Nc1ccccn1)Oc1ccccc1` (stereo not given), the inhibition is reported as inactive: 4.98%. In the case of `COc1ccccc1OP(C)(=O)Nc1ccc(C)cc1C` (stereo not given), the inhibition is reported as inactive: 0.34%. For `CCc1ccc(OP(C)(=O)O)cc1`, the inhibition was inactive: 2.87%. `O=[N+]([O-])c1cc([N+](=O)[O-])c(Nc2ccccn2)c([N+](=O)[O-])c1` was tested, and the inhibition was inactive: -12%. `Cc1c(NP(C)(=O)Oc2ccc(C(C)C)cc2)c(=O)n(-c2ccccc2)n1C` (stereo not given) was tested, and the inhibition was inactive: 0.47%. For `COc1ccc(OP(C)(=O)Nc2ccccn2)cc1` (stereo not given), the inhibition was inactive: -10.3%. `CN(C)CCOC(=O)C(O)(c1ccccc1)C1CCCC1` (stereo not given) was tested, and the inhibition was inactive: 6.58%. In the case of `COc1ccccc1OP(C)(=O)Nc1ccc(Br)cc1` (stereo not given), the inhibition is reported as inactive: 1.56%. `CP(=O)(OCCOc1ccccc1)OCCOc1ccccc1` was tested, and the inhibition was inactive: 0.74%. For `CCCCCCCCCCCCCCCC1C[N+](C)(C)CCOP(C)(=O)O1` (stereo not given), the inhibition was inactive: 9.81%. `CP(=O)(Nc1ccc(Cl)cc1Cl)Oc1ccccc1` (stereo not given) was tested, and the inhibition was inactive: 3.38%. For `COc1ccccc1OP(C)(=O)Nc1ccc(C)c(C)c1` (stereo not given), the inhibition was inactive: 0.46%. With `COc1ccc(OP(C)(=O)Nc2ccccc2Br)cc1` (stereo not given) the inhibition was inactive: 5.18%. With `O=C1C(O)=C([N+](=O)[O-])C(=O)C(O)=C1[N+](=O)[O-]` the inhibition was inactive: -8.44%. For `Cc1cc(C)cc(OP(C)(=O)Nc2cccc(C(F)(F)F)c2)c1` (stereo not given), the inhibition was inactive: -5.64%.
